Values of other authors as cited in patent publication US5698219A, “Nanoemulsion of the oil water type, useful as an ophthalmic vehicle and process for the preparation thereof” (Laboratorios Cusi, S.A., priority 1994, dated 1997).

Settings: literature

| Substance | cataractogenic effects |
| --- | --- |
| phosphatidyl choline | possible cataractogenic effects |
| lysophosphatidyl choline | possible cataractogenic effects |
